Hits are enriched below; roughly 16% of the tested compounds scored in any of these assays.
miR-21 reporter: raises the signal of a miR-21 reporter. HeLa miR-21 FLuc reporter, luciferase, 48 h. 340,000 tested, under 10 active. Potency, µM (highest dose often 38.3 µM); active = well fitted rising curve with a large enough effect; inconclusive = small, poorly fitted or top-dose-only effect; inactive = no such curve, though single readings can be large or run the other way;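 note: miR-21 action dims this reporter so a rising signal means less miR-21 action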
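Luminescence from a firefly luciferase reporter carrying a miR-21 binding site downstream, stably expressed under a CMV promoter in HeLa cells that make miR-21 endogenously, reports miRNA modulation after 48 h compound exposure up to approximately 40uM final.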
TDP1 block: TDP1 (human) enzyme inhibition. Q9NUW8. recombinant TDP1, AlphaScreen DNA substrate cleavage. Potency, µM (top dose mostly 130 µM), hits mostly inhibitors. 0.28% of 350,000 active; also: nearly all actives have a fitted effect of over 40% in size
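E. coli-derived human Tdp1, 1 nM final. Cpd preinc 15 min RT; substrate 15 nM final, 5 min RT; AS bead mix 10 ug/ml final, 10 min RT. Signal loss = tyrosine-FITC cleavage. No-enzyme wells = max signal.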
TDP1 cell noCPT: qHTS for Inhibitors of human tyrosyl-DNA phosphodiesterase 1 (TDP1): qHTS in cells in absence of CPT; DT40 Tdp1-/- hTDP1 cells, no CPT, ATP luminescence, 48 h; Potency, µM (doses to about 46.2 µM), most hits filed as inhibitors; 15% of 420,000 active; AID 686978, 2013; also: nearly all actives have a fitted effect of over 55% in size
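Growth of hTDP1-complemented DT40 Tdp1-knockout cells is measured by ATP luminescence after at least 48 hr compound exposure at 37 °C, with DMSO substituting for the 20 nM CPT used in the parallel screen.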
TDP1 cell CPT: DT40-hTDP1 cell growth loss with CPT | Potency, µM (highest dose often 46.2 µM), actives largely listed as inhibitors | chicken DT40 Tdp1-/-;hTDP1 cells + 20 nM CPT, ATP luminescence, 48 h | 12% of 420,000 active; also: nearly all actives have a fitted effect of over 55% in size
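Chicken DT40 Tdp1-/- cells stably complemented with human TDP1 were seeded at 400 cells/well in medium containing 20 nM camptothecin, exposed to pin-transferred compounds, and grown at 37 °C for at least 48 hr. Viability was read as ATP luminescence.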
uPA surface inh: blocks generation of uPA at the cell surface | cell surface uPA generation assay, qHTS | Potency, µM (series often up to 38.3 µM), most hits filed as inhibitors | 0.31% of 330,000 active; active = well fitted inhibition curve with a large enough effect; inconclusive = small, poorly fitted or top-dose-only effect; inactive = no such curve, though single readings can be large or run the other way; tested in mouse RAW 264.7 cells; also: nearly all actives have a fitted effect of over 55% in size
Hits are given with their value; 0 = inactive; ? = inconclusive; - = no result given. Unless noted, calls follow the shape of the dose curve; as a rule, active = well fitted curve in the direction sought with a large enough effect; inconclusive = small, poorly fitted or top-dose-only effect, or another doubt; inactive = no such curve, though single readings can be large; an effect the other way counts as inactive or inconclusive.

SMILES	miR-21 reporter	TDP1 block	TDP1 cell noCPT	TDP1 cell CPT	uPA surface inh
CCN(CC1CCCN(CCc2cccc(F)c2)C1)C(=O)c1ccoc1C (stereo unspecified)	-	-	0	0	-
C=CCC(=O)N(CC)CC1CCCN(CCc2cccc(F)c2)C1 (stereo unspecified)	0	0	0	0	0
CCN(Cc1ccc(O)cc1)CC1CCCN(CCc2cccc(F)c2)C1 (stereo unspecified)	0	-	?	16.4µM	0
CCOc1cccc(CN(CC)CC2CCCN(CCc3cccc(OC)c3)C2)c1O (stereo unspecified)	0	-	16.4µM	?	0
Cc1sc2nc(CSc3ccccc3)nc(N3CCN(C)CC3)c2c1C	0	0	16.4µM	?	0
COCCNc1nc(CSc2ccccc2)nc2sc(C)c(C)c12	0	?	?	?	0
C[C@H](NC(=O)c1nc[nH]c1C(=O)NCC(=O)OCc1ccccc1)C(=O)OC(C)(C)C	0	-	0	0	0
O=C(CSc1ccccn1)Nc1nonc1[N+](=O)[O-]	?	0	4.11µM	3.66µM	?
Nc1c(Br)c(=O)[nH]c(=O)n1-c1ccccc1	0	-	0	0	0
Cc1cccnc1CN1CCN(C(=O)c2cc(COc3ccc4ncccc4c3)on2)CC1	0	0	7.31µM	5.8µM	0
CCOC(=O)N1CCN(C(=O)c2cc(COc3ccc4ncccc4c3)on2)CC1	?	0	6.51µM	6.51µM	0
CCN1CCN(C(=O)c2cc(COc3c(C)cccc3C)on2)CC1	0	0	0	0	0
O=C(Nc1ccc(S(=O)(=O)N2CCCC2)cc1)N1c2ccccc2Sc2ccccc21	0	0	?	?	0
CC(=O)c1ccc(OCc2nnn(CC(=O)O)c2-c2ccccc2)cc1	-	-	0	0	-
Cc1ccc(OCc2nnn(CC(=O)NS(=O)(=O)c3c(C)noc3C)c2-c2ccccc2)cc1	-	-	1.03µM	?	-
O=C(NCCN1CCOCC1)c1ccc(/C=C2\Sc3ccccc3N(Cc3ccccc3F)C2=O)cc1	0	0	?	?	?
CCN1CCN(CCNC(=O)c2ccc3c(c2)N(Cc2ccc(F)cc2)C(=O)/C(=C/c2ccccc2)S3)CC1	0	0	8.2µM	11.6µM	0
CCN1CCN(CCNC(=O)c2ccc(/C=C3/Sc4ccccc4N(Cc4cccc(Cl)c4)C3=O)cc2)CC1	0	0	18.4µM	18.4µM	0
Cc1ccccc1CNC(=O)CN1C(=O)CSc2ccc(S(=O)(=O)N(C)C)cc21	0	0	0	?	-
NC(=O)N/N=C/c1c(Sc2nnnn2-c2ccccc2)nc2ccccn2c1=O	0	0	2.59µM	2.91µM	0
Cc1cccn2c(=O)c(-c3nnn[nH]3)cnc12	-	-	0	0	-
COc1cccc(-c2nc(CS(=O)(=O)CC(=O)Nc3c(C)cccc3C)c(C)o2)c1	0	0	?	?	0
CCOc1ccc(CCNC(=O)CS(=O)(=O)Cc2nc(-c3ccccc3F)oc2C)cc1	0	0	11.6µM	?	0
CCCNC(=O)CS(=O)(=O)Cc1nc(-c2ccccc2C)oc1C	0	0	0	0	0
Cc1ccccc1-c1nc(CS(=O)(=O)CC(=O)Nc2c(C)cccc2C)c(C)o1	0	0	18.4µM	?	-
SMILES	miR-21 reporter	TDP1 block	TDP1 cell noCPT	TDP1 cell CPT	uPA surface inh
Cc1ccc(CNC(=O)CS(=O)(=O)Cc2nc(-c3ccccc3C)oc2C)cc1	0	0	16.4µM	?	-
Cc1nnc(NC(=O)C2CCN(c3cnccn3)CC2)s1	0	0	0	0	0
COc1ccc(NC(=O)COC(=O)c2c(F)cccc2Cl)cc1OC	0	0	-	-	-
CCCCOc1ccc(C2=NC(c3ccncc3)=Nc3ccc(Br)cc3N2)cc1	0	0	?	?	-
CC(=O)c1sc(=S)n(-c2ccc(Cl)cc2)c1C	0	0	?	18.4µM	0
CC(=O)c1sc(=S)n(-c2ccccc2)c1C	0	0	0	0	0
COc1ccccc1C(=O)N(Cc1ccco1)Cc1ccccc1F	0	0	20.6µM	?	-
CCOc1ccccc1C(=O)N(Cc1ccco1)Cc1ccccc1F	0	0	20.6µM	20.6µM	-
CCOCCCNCC(=O)N1CCN(S(=O)(=O)c2ccc(C)cc2)CC1	0	0	0	0	-
O=C(c1ccco1)N1CCN(C(=O)c2cccc3c2C(=O)N(Cc2cccnc2)C3)CC1	0	0	0	0	0
O=C(CC1N=C2c3ccccc3N=C(SCc3cccc(Cl)c3)N2C1=O)NC1CCCCC1 (stereo unspecified)	0	0	18.4µM	16.4µM	-
O=C(CCC1N=C2c3ccccc3N=C(SCc3ccccc3F)N2C1=O)NC1CCCCC1 (stereo unspecified)	0	0	18.4µM	18.4µM	-
O=C(CC1N=C2c3ccccc3N=C(SCc3ccccc3Cl)N2C1=O)NC1CCCCC1 (stereo unspecified)	0	0	11.6µM	9.2µM	-
COc1ccccc1NC(=O)CSC1=Nc2ccccc2C2=NC(CC(=O)NCCc3ccccc3)C(=O)N12 (stereo unspecified)	0	0	?	?	-
O=C(CC1N=C2c3ccccc3N=C(SCc3ccccc3F)N2C1=O)NCCc1ccccc1 (stereo unspecified)	0	0	20.6µM	20.6µM	-
Cc1nn(C(=O)c2ccccc2F)c(C)c1S(=O)(=O)N1CCCCCC1	0	0	0	0	-
CCCCCCCCNC(=O)c1cccnc1SCC(=O)Nc1ccc(OC)cc1OC	0	0	20.6µM	0	0
CCCCNC(=O)c1cccnc1SCC(=O)Nc1ccccc1OC	0	0	0	0	0
COP(=O)(OC)c1ccc(NCc2cc(O)ccc2O)cc1	-	-	4.11µM	4.61µM	0
O=C(OCc1ccccc1)c1ccc(NCc2cc(O)ccc2O)cc1	-	-	3.66µM	4.61µM	0
Cc1ccc(NCc2ccccc2O)cc1C	0	0	0	?	0
CC(C)OC(=O)c1ccc(NC(=O)c2ccccc2)cc1	0	0	?	?	0
CC(C)OC(=O)c1ccc(NCc2cc(O)ccc2O)cc1	-	-	2.31µM	1.16µM	0
CCOC(=O)Cc1cn2c(=O)cc(CSCC(=O)Nc3ccc(C)c(C)c3)nc2s1	0	0	?	18.4µM	0
COc1ccc(NC(=O)CSCc2cc(=O)n3cc(C)sc3n2)cc1	0	0	0	0	0
SMILES	miR-21 reporter	TDP1 block	TDP1 cell noCPT	TDP1 cell CPT	uPA surface inh
COc1cc(/C=C2/C(=N)N3N=C(CC(=O)N4CCOCC4)SC3=NC2=O)ccc1OCc1ccccc1F	0	0	0	0	0
CCCCN(C)CCCNC(=O)Cn1ncc2c3ccccc3n(Cc3ccccc3F)c2c1=O	0	0	13µM	13µM	-
CCCCN(C)CCCNC(=O)Cn1ncc2c3ccccc3n(Cc3ccccc3)c2c1=O	0	0	?	?	-
CCCN(CCC)CCCNC(=O)Cn1ncc2c3ccccc3n(Cc3ccccc3F)c2c1=O	0	0	23.1µM	16.4µM	-
CCCCN(C)CCCNC(=O)Cn1ncc2c3ccccc3n(Cc3cc(C)ccc3C)c2c1=O	0	0	2.91µM	2.59µM	-
CCN1CC(=O)Nc2cc(S(=O)(=O)N3CCOCC3)ccc21	0	0	0	0	0
